Structures are written as SMILES.

Sequences of proteins named here, by UniProt entry; tags and fusion partners are left off.
UniProt P22460, whole entry: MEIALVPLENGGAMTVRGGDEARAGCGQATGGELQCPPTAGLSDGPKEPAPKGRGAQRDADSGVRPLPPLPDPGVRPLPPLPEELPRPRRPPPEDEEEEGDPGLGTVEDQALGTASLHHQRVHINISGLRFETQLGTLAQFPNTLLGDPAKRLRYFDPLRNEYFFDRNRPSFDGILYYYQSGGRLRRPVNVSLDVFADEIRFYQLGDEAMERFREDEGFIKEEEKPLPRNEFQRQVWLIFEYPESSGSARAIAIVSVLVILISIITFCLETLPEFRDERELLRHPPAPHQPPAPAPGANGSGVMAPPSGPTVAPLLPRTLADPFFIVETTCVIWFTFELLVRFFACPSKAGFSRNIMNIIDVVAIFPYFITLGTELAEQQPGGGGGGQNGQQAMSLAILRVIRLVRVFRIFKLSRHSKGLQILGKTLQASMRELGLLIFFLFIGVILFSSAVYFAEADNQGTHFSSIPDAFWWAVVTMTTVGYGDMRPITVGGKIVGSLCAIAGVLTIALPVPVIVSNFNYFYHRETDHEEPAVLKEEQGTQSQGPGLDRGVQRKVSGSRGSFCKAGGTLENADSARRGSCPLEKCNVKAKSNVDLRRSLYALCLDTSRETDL

As a reminder, the IC50 is the concentration needed to halve the response being measured.

In this experiment the target is T1, Kv1.5 channels from humans (Homo sapiens, UniProt P22460).
T1 construct: expressed in transfected cells; host or cells: Xenopus laevis oocytes injected with in vitro synthesized RNA
Nature of the experiment: Activity on the Kv1.5 channel, two microelectrode voltage clamp in Xenopus oocytes. In kind it is cell-based. As to conditions: human Kv1.5 expressed in Xenopus oocytes, room temperature, Hill equation. As to the method: Determination of the activity on the Kv1.5 channel
These experiments were carried out at room temperature.
As to `COc1ccc(CC(=O)NCc2ccccc2-c2ccccc2C(=O)NCc2ccc(F)cc2F)cc1` [Example 3, 2′-{[2-(4-Methoxyphenyl)acetylamino]methyl}biphenyl-2-carboxylic acid 2,4-difluorobenzylamide], the IC50 worked out at 1.4 µM.

As for `CC[C@H](NC(=O)c1cc(F)ccc1NS(=O)(=O)c1cccc2cccnc12)c1ccccc1` [Example 7, (S)-5-Fluoro-2-(quinoline-8-sulfonylamino)-N-(1-phenyl-propyl)benzamide], the IC50 came to 1.1 µM. As for `COc1ccc(CC(=O)NCc2ccccc2-c2ccccc2C(=O)NCCc2cccnc2)cc1` [Example 1, 2′-{[2-(4-Methoxyphenyl)acetylamino]methyl}biphenyl-2-carboxylic acid (2-pyridin-3-ylethyl)amide], the IC50 amounted to 4.7 µM. Then `CCCCS(=O)(=O)Nc1ccc(C)cc1C(=O)NC(c1cccnc1)C1CC1` (stereo not shown) [Example 6, 2-(Butyl-1-sulfonylamino)-N-(cyclopropylpyridin-3-ylmethyl)-5-methylbenzamide], with 1 µM.

Source of the values: patent US20050054673A1, “Combination of phenylcarboxylic acid amides with beta-adrenoreceptor blockers and their use for the treatment of atrial arrhythmias” (Aventis Pharma Deutschland GmbH, priority 2003, published 2005).
